Data taken from patent US11555072B2, “A33 antibody compositions and methods of using the same in radioimmunotherapy” (MEMORIAL SLOAN KETTERING CANCER CENTER, priority 2017, dated 2023).

What was measured:
[1] = PRIT toxicity assessment in treated mice (planned); type: in vivo
Experimental: Biodistribution of radiolabeled DOTA-Bn and estimates of absorbed doses in mice implanted with SW1222 tumor cells are determined. PRIT is carried out in groups of A33-positive SW1222 tumor-bearing mice with the optimum doses of huA33-C825 and Clearing Agent, followed with 2.0 MBq (−10 pmol) of ^177Lu-DOTA-Bn and biodistribution studies are carried out from 2-120 h p.i. of ^177Lu-DOTA-Bn to determine the ^177Lu-activity residence time in tumor and various normal tissues. Briefly, ^177Lu-activity in tumor and various normal tissues are determined using a biodistribution assay following PRIT with optimum A33-C825 (huA33-huC825 or huA33-mC825) and dextran-clearing agent doses and 2.0 MBq (−10 pmol) of ^177Lu-DOTA-Bn. Groups of SW1222 tumor-bearing mice (n=4 to 5) are given huA33-C825, followed 24 h later with dextran-clearing agent, and after an additional 4 h, 2.0 MBq (−10 pmol) of ^177Lu-DOTA-Bn. […] For each target region, the absorbed dose is calculated as the product of the ^177Lu equilibrium dose constant for non-penetrating radiations (i.e., beta rays) and the target regions ^177Lu cumulated activity, assuming complete local absorption of the ^177Lu beta rays and ignoring the gamma ray and non-self dose contributions. […] Similar results in tumor uptake after PRIT are expected when assessed using PET imaging. […]

[2] = test system: A33-positive SW1222 xenografts; assay: PRIT therapy studies in SW1222 xenograft mice (planned); type: in vivo
Experimental: PRIT reagents, protocol and xenograft studies. All animal experiments will be approved by the Institutional Animal Care and Use Committee of Memorial Sloan Kettering Cancer Center and institutional guidelines for the proper and humane use of animals in research will be followed. Athymic nu/nu female mice (6-8 weeks old; Harlan Sprague Dawley) are allowed to acclimate in the vivarium for at least one week. Groups of animals are injected s.c. with A33-positive SW1222 in the left flank with 5×10^6 tumor cells formulated with […]® (BD Biosciences, San Jose, Calif.) in a 1:1 ratio, and established tumors (100-900 mm^2) will be observed in 7-10 days using the formula for the volume of an ellipsoid (V=4/3π(length/2×width/2×height/2). All reagents will be given intravenously (i.v.) via the lateral tail vein. PRIT protocol includes injections of: huA33-huC825 or huA33-mC825 [t=−28 h], followed by clearing agent (a 500 KDa dextran-(Y)-DOTA-Bn conjugate, prepared according to Orcutt et al., Nucl. Med Biol. 38:223-233 (2011) and formulated in saline for injection 24 h later. The substitution ratio of moles of (Y)-DOTA-Bn per moles of dextran will be 61(Y)-DOTA-Bn/dextran)) [t=−4 h], and ^177Lu-DOTA-Bn (prepared as previously described by incubating aminobenzyl-DOTA(p-NH2-Bn-DOTA) from MACROCYCLICS™ and ^177LuCl3 (specific activity −30 Ci/mg; […]®, Inc.) and formulated in saline for injection) after 4 h [t=0 h]. In addition, huA33-C825 is trace radiolabeled with I^131 to estimate tumor uptake during PRIT.
Therapy and scintigraphy studies. Groups of mice bearing established s.c. A33-positive SW1222 xenografts are injected with either huA33-C825 (huA33-huC825 or huA33-mC825) or non-specific (n.s.) IgG-C825 PRIT (i.e., single-cycle treatment, ^177Lu-DOTA-Bn injection on day 7 post tumor-inoculation) or two cycles of PRIT (i.e., dual-cycle treatment study, ^177Lu-DOTA-Bn injections given on day 10 and day 17 post tumor-inoculation). For the dual-cycle treatment study, the tumor volume on day 10-post tumor inoculation (TV 10) is described (i.e., day of first ^177Lu-DOTA-Bn injection) and expressed when appropriate as average±SD. The following definitions are used to describe treatment response: a complete response (CR) is defined as tumor shrinkage to <100 mm^3. A durable response (DR) is defined as survival at 140 days post treatment. Excessive tumor burden is defined as >2000 mm^3. […]
Biodistribution of radiolabeled DOTA-Bn and estimates of absorbed doses in mice implanted with SW1222 tumor cells are determined. […] Briefly, ^177Lu-activity in tumor and various normal tissues are determined using a biodistribution assay following PRIT with optimum A33-C825 (huA33-huC825 or huA33-mC825) and dextran-clearing agent doses and 2.0 MBq (−10 pmol) of ^177Lu-DOTA-Bn. […]

T cells = assay: T cell activation and proliferation assay (CFSE-labeled PBMCs plus tumor cells); type: cell-based, human
Experimental: T cell proliferation assay. Fresh PBMCs from healthy donors were labeled with […] CFSE (Life Technologies Corp., Carlsbad, Calif.) for 5 min at room temperature, followed by neutralization using PBS containing 5% FBS. Target cells were then incubated with labeled PBMCs under different conditions at 37° C. before analyzing the expression of surface activation markers and T cell proliferation at 24 hours and 96 hours.
HuA33-BsAb activated and induced cell cycle entry of fresh T cells.

[3] = three cycles, 55 MBq 177Lu-DOTA-Bn each

B1: huA33-C825: huA33 bispecific with anti-DOTA C825 scFv (huA33-huC825 or huA33-mC825); also negative control lacking anti-CD3 scFv (antibody)
heavy: EVQLLESGGGLVQPGGSLRLSCAASGFAFSTYDMSWVRQAPGKGLEWVATISSGGSYTYYLDSVKGRFTISRDSSKNTLYLQMNSLQAEDSAIYYCAPTTVVPFAYWGQGTLVTVSSASTKGPSVFPLAPSSKSTSGGTAALGCLVKDYFPEPVTVSWNSGALTSGVHTFPAVLQSSGLYSLSSVVTVPSSSLGTQTYICNVNHKPSNTKVDKRV[gap - human IgG1 Fc with changes]
light: DIQMTQSPSSLSVSVGDRVTITCKASQNVRTVVAWYQQKPGLAPKTLIYLASNRHTGVPSRFSGSGSGTDFTFTISSLQPEDIATYFCQQHWSYPLTFGQGTKVEVKRTVAAPSVFIFPPSDEQLKSGTASVVCLLNNFYPREAKVQWKVDNALQSGNSQESVTEQDSKDSTYSLSSTLTLSKADYEKHKVYACEVTHQGLSSPVTKSFNRGECGGGGSGGGGSASHVKLQESGPGLVQPSQSLSLTCTVSGFSLTDYGVHWVRQSPGKGLEWLGVIWSGGGTAYNTALISRLNIYRDNSKNQVFLEMNSLQAEDTAMYYCARRGSYPYNYFDAWGCGTTVTVSSGGGGSGGGGSGGGGSQAVVIQESALTTPPGETVTLTCGSSTGAVTASNYANWVQEKPDHCFTGLIGGHNNRPPGVPARFSGSLIGDKAALTIAGTQTEDEAIYFCALWYSDHWVIGGGTRLTVLG
[1]; subjects with durable responses after PRIT
  toxicity over prolonged periods: little to no toxicity
[1]; [3]
  toxicities after three-cycle PRIT regimen: no obvious toxicities in kidney, liver, spleen, and bone/marrow
[2]; 11.1 or 33.3 MBq 177Lu-DOTA-Bn
  tumor response, single-cycle therapy study: delay in tumor growth
[2]; single-cycle PRIT with 177Lu-DOTA-Bn
  tumor to blood therapeutic index: high tumor to blood therapeutic index
[2]; [3]
  tumor response, three-cycle PRIT regimen: complete tumor response in all treated animals
[2]; two cycles of PRIT+11.1 MBq 177Lu-DOTA-Bn
  tumor response, dual-cycle PRIT: complete tumor response and/or delay tumor growth
T cells; PBMCs + Colo205, 96 hours
  T cell division by CFSE dye dilution: did not stimulate significant amount of cell division
T cells; PBMCs + Colo205, E:T 5, 24 hours
  upregulation of CD25: only minimal upregulation of CD25
